Usually Ki stands for the equilibrium dissociation constant of an inhibitor or competing ligand from its target. Low readings indicate tighter binding, high ones weaker binding.

Protein sequences, listed by entry. Tags and fused reporters are not part of them. Residues count along the entry.
UniProt P36544, 23-502 limits assumed: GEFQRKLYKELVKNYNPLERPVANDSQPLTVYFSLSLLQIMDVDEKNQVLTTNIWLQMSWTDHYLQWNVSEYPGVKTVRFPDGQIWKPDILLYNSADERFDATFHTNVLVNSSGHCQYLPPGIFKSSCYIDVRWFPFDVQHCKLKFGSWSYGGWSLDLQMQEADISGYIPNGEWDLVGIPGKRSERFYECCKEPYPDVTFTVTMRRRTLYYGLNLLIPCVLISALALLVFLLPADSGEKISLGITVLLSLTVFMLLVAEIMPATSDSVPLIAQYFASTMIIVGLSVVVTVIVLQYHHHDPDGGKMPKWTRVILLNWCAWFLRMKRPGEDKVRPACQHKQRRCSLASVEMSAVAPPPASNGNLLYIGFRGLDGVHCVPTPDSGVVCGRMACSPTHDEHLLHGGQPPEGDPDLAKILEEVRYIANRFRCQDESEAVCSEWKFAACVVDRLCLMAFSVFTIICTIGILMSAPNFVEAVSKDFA

The target in the experiment is human α7 nAChR (Homo sapiens, UniProt P36544). As to the kind of experiment: [125I]α-Bgtx radioligand binding (saturation and competition), membranes of transfected SH-SY5Y cells.

`c1cnc2cc3c(cc2n1)[C@@H]1CNC[C@H]3C1` [Varenicline 1, varenicline, reference compound] had a Ki of 0.075 µM.

The values above are taken from PMC12711630 (Cell Reports. Physical Science, 2025).
